From patent publication US8536354B2, “Steroidal ligands and their use in gene switch modulation” (Intrexon Corporation, priority 2008, dated 2013)

By UniProt entry, the sequences of proteins in these tests, tags left out. Where a name states a change or a piece, a line headed by the entry shows the natural chain unless it says otherwise.
UniProt O77240: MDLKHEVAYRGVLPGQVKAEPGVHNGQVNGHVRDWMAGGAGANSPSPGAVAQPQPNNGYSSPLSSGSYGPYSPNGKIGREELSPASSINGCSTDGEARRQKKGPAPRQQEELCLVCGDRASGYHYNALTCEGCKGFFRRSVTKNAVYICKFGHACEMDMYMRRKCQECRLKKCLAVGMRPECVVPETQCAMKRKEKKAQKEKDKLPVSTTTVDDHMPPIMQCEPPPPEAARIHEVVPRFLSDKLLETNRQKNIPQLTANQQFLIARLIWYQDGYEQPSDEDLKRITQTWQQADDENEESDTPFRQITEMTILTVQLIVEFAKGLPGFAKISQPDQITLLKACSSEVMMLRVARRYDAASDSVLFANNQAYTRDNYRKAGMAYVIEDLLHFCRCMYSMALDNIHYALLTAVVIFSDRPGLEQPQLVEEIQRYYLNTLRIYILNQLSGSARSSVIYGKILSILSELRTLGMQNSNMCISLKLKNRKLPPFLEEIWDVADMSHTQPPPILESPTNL

Molecular target: substitution mutant CfEcR ligand binding domain (Choristoneura fumiferana, UniProt O77240)
Settings: CfEcR N119F/V96T double mutant; for rel max FI (20E), CF-N119F/V96T: max fold induction at any concentration relative to 20E; for rel max FI (PoA), CF-N119F/V96T: max fold induction at any concentration relative to PoA; for EC50: read-out: EC50 (μM), CF-N119F/V96T, NIH3T3 cells, luciferase, 48 h, ligand 0.01-33 μM

Row | SMILES | rel max FI (20E), CF-N119F/V96T | rel max FI (PoA), CF-N119F/V96T | EC50 [µM]
1 | COC1C[C@H]2C(=O)C=C3[C@H](CC[C@]4(C)[C@@H]([C@@](C)(O)C(CCC(C)(C)O)OC)CC[C@@]34OC)[C@@]2(C)CC1OC (stereo partly drawn) [20E-2,3,14,22-tetramethyl ether] | 0.00 | 0.00 | > 33
2 | CO[C@H]1C[C@@]2(C)[C@@H](C[C@H]1O)C(=O)C=C1[C@@H]2CC[C@]2(C)[C@@H]([C@@](C)(O)[C@@H](CCC(C)(C)O)OC)CC[C@@]12O [20E-2,22-dimethyl ether] | 0.01 | 0.00 | > 33
3 | CO[C@H]1C[C@@]2(C)[C@@H](C[C@H]1O)C(=O)C=C1[C@@H]2CC[C@]2(C)[C@@H]([C@@](C)(O)[C@H](O)CCC(C)(C)O)CC[C@@]12O [20E-2-methyl ether] | 0.02 | 0.00 | > 33
4 | CO[C@@H]1C[C@H]2C(=O)C=C3[C@H](CC[C@]4(C)[C@@H]([C@@](C)(O)[C@@H](CCC(C)(C)O)OC)CC[C@@]34O)[C@@]2(C)C[C@@H]1O [20E-3,22-dimethyl ether] | 0.27 | 0.06 | > 20
5 | CO[C@@H]1C[C@H]2C(=O)C=C3[C@H](CC[C@]4(C)[C@@H]([C@@](C)(O)[C@H](O)CCC(C)(C)O)CC[C@@]34O)[C@@]2(C)C[C@@H]1O [20E-3-methyl ether] | 1.54 | 0.35 | ~10
6 | CO[C@H](CCC(C)(C)O)[C@](C)(O)C1CC[C@@]2(O)C3=CC(=O)C4C[C@@H](O)[C@@H](O)CC4(C)C3CCC12C (stereo partly drawn) [20E-22-methyl ether] | 0.53 | 0.12 | ~12
